Assay results from patent US20230085686A1, “Multicompartement hydrogel fibre their preparation and uses thereof” (Association For The Advancement Of Tissue Engineering And …, priority 2020, published 2023).

Conditions: dexamethasone-FITC in oil droplets inside a GG hydrogel fibre, in PBS

With Dexamethasone-FITC as the substance, how does the “period of gradual release from the fibre” value read?
Its value is “around 12 h”.
